Assay results published in paper PMC3563628, “Prevalence, Specificity and Determinants of Lipid-Interacting PDZ Domains from an In-Cell Screen and In Vitro Binding Experiments” (PLoS ONE, 2013).

Test system: eYFP-S1PDZ1-CASK in MCF-7 cells
Experiment: Pharmacological treatment, plasma membrane localization of eYFP-S1PDZ1-CASK
Assay type: cell-based
Details: ionomycin 10 µM, PAO 100 µM, wortmannin 500 nM

SMILES: O=[As]c1ccccc1 (stereo not shown)
- plasma membrane localization of eYFP-S1PDZ1-CASK upon treatment: released
